From US8686153B2, “Lenalidomide salts” (Synthon B.V., priority 2009, dated 2014) come the findings set out here.

This series is described as follows: Solubility in water, shaken flask method.

Lenalidomide Benzene Sulfonate: the “solubility in water at 20° C.” value is “about 18 mg/ml”.

As to Lenalidomide P-Toluene Sulfonate, the “solubility in water at 20° C.” value is “about 13 mg/ml”.
